Laboratory results published in ChEMBL document CHEMBL1130385, “Synthesis and biological activities of conformationally restricted, tricyclic nonclassical antifolates as inhibitors of dihydrofolate reductases” (J Med Chem, 1997).

Key:
Dihydrofolate reductase = target: T1, Dihydrofolate reductase (Pneumocystis carinii, UniProt P16184)
T1 sequence (P16184 whole entry): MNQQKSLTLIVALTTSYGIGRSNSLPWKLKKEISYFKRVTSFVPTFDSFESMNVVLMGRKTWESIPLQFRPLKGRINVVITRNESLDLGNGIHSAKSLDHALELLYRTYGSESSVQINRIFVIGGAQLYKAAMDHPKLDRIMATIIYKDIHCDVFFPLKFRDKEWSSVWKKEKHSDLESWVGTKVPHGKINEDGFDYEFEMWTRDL

[1] = target: T2, Bifunctional dihydrofolate reductase-thymidylate synthase (Toxoplasma gondii, UniProt Q07422); assay: Inhibitory concentration against Toxoplasma gondii Dihydrofolate reductase
T2 sequence (Q07422 whole entry): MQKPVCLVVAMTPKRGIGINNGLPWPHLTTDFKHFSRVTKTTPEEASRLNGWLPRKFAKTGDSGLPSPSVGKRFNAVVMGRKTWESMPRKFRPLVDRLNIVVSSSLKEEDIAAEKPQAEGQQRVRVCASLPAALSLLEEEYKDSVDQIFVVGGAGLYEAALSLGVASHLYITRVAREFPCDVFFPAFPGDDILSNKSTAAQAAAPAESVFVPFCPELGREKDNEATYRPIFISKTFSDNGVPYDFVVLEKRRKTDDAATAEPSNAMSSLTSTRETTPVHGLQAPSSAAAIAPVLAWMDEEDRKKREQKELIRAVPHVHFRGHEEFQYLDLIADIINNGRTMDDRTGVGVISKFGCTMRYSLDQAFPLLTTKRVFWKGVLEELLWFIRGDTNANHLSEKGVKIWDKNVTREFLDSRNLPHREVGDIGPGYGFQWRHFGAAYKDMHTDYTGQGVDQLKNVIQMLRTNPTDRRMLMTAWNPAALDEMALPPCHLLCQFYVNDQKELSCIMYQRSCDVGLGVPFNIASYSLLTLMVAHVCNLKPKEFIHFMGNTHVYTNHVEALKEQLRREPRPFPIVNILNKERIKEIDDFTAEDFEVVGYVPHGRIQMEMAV

Structure (SMILES) | IC50 (Dihydrofolate reductase) | IC50 [1]
COc1cc(N2C=C3C(=O)N=c4nc(N)nc(N)c4=C3CC2)cc(OC)c1OC | 4.28 µM | –
COc1cc(N2CCC3c4c(N)nc(N)nc4NCC3C2)cc(OC)c1OC (centres undefined) | 2.2 µM | –
COc1c(Cl)c(-n2ccc3c4c(N)nc(N)nc4nc(=O)c-3c2)c(Cl)c(OC)c1OC | – | 2300 nM
COc1cc(N2C=Cc3c(cnc4nc(N)nc(N)c34)C2)cc(OC)c1OC | 4.6 µM | –
